The results in this text go back to PubChem BioAssay AID652025 (National Center for Advancing Translational Sciences (NCATS), 2013).

This is a selection; strong and weak results do not stand in their true shares. Some results for these compounds are left out of this collection, so the calls shown say nothing about other tests. Calls of active or inactive are those of the source. Rule as the data show it: active = activation above about 50%; inconclusive = mostly about 30% to 49%; inactive = weaker than that.

This assay is described as follows: qHTS of IL-2 Activators. Also: 0% is about no effect. The conditions noted are these: IL-2 activation reporter assay, cell-based qHTS; hits give high values; in transgenic mouse T cells; stimulated with anti-CD3/CD4/CD28 beads. From the text: The adaptive immune response against any infectious agent begins with the activation of an antigen specific T cell. This relatively rare and inert ("naive") T cell undergoes a massive proliferative expansion and differentiation process to generate sufficient number of potent pathogen-specific effector T cells. The effector T cells fight the infection by making cytokines and helping other cells to become fully armed as well. If any naive T cell has antigen receptors (TCRs) that can be activated by self peptides, then a variety of regulatory mechanisms kick in to prevent this cell from performing to its full potential. These processes collectively constitute the phenomenon of immunological tolerance and their failure leads to autoimmunity. One arm of tolerance involves generation of biochemical negative feedback downstream of the TCR (tuning). This is especially relevant to self antigens present in the body over long periods of time (chronic), which form the bulk of our proteome. The negative feedback serves to tune the TCR signaling, such that the ambient antigenic stimulation is nullified intracellularly. Unfortunately, this critical machinery serves as a target for chronic viral, bacterial and parasitic infections (as well as tumors), which can evade a robust immune response, simply by allowing T cells to tune down their signaling to pathogen or malignancy derived antigens. As such, disrupting the tuning in such cases would allow the tolerant T cell to function again and deliver a robust effector response.
If a therapeutic can restore responsiveness to the tuned down T cell, even for a short time, they could combat the pathogen without any additional immunization. To that end, we have developed a sensitive HTS T cell based assay based on IL-2. This assay will be screened against the Molecular Libraries Small Molecule Repository (MLSMR) to find small molecules that could elicit this response.
NIH Chemical Genomics Center [NCGC]
NIH Molecular Libraries Probe Centers Network [MLPCN]
Assay Submitter (PI): Ron Schwartz, NIAID
4 microL (750 cells/well) of unstimulated transgenic mouse T cells (columns 1-3,5-48) are dispensed into Aurora LoBase, black clear-bottom 1536-well assay plates; column 4 receives an identical concentration of transgenic memory T cells as a non-tolerant control. Compounds are then transferred via Kalypsys pin tool equipped with 1536-pin array (10 nL slotted pins, V&P Scientific, San Diego, CA). Following addition of compound and a 60 minute incubation, 1 microL of bead stimulation solution ((0.04 micron Fluospheres (Life technologies, CA) coated with 10ug/ml each anti-CD3 and anti-CD4 (clones 2C11 and GK1.5, BD Biosciences, CA) and mixed with 1ug/ml anti-CD28 (clone PV-1, BD biosciences, CA)). columns 2-48) is added to stimulate the IL-2 response pathway; media is instead added to column 1 as an unstimulated control, while PMA/ionomycin (Sigma Aldrich, MO) is added to column 3 as a control for IL-2 tolerance bypass. The plates are then incubated at 37 degrees C for 18 hours. EGFP and DsRed signal are then detected using an Acumen eX3 Explorer fluorescent plate cytometer. All cells are dispensed in cell media containing EHAA (Quality Biologicals, MD), RPMI (Quality Biologicals, MD), Glutamine (Life Technologies, CA), Penicillin/Streptomycin (Quality Biologicals, MD), 2-ME (Sigma Aldrich, MO) and 10% FBS (Gemini Bioproducts, CA) .
Background: In qHTS, concentration-response curves come from the screen itself.
On to `Cc1ccc(C(=O)NCC2(N3CCCCC3)CCCCC2)cc1`, for which the activation was inactive: 2.66%.

Turning to `CCN(CC)CC(C)C(C)OC(=O)C(O)(c1ccccc1)c1ccccc1` (stereo unspecified), the activation is inactive: 1.14%. Regarding `COc1cc(SC)ccc1C(=O)NCC1(N(C)C)CCCCC1`, the activation was inactive: -0.688%. `CC(C)N1C(=O)CC2(CCN(CCOC(=O)C(O)(c3ccccc3)c3ccccc3)CC2)C1=O`: the activation was inactive: -0.478%. Turning to `CN1[C@@H]2CC[C@H]1CC(OC(=O)C(O)(c1ccccc1)c1ccccc1)C2` (stereo partly specified), the activation is inactive: 1.14%.

As for `O=C(NCC1(N2CCCCC2)CCCCC1)c1cc([N+](=O)[O-])ccc1Cl`, the activation is inactive: 0.967%. With `COc1ccc(C(=O)NCC2(N(C)C)CCCCC2)cc1` the figure was inactive: -2.81%; with `Cc1cc(C(=O)NCC2(N3CCCCC3)CCCCC2)ccc1[N+](=O)[O-]`, inactive: 1.12%. `CCN1CCCC(OC(=O)C2(O)c3ccccc3C=Cc3ccccc32)C1` (stereo unspecified): the activation was inactive: -0.57%.

Regarding `O=C(NCC1(N2CCCCC2)CCCCC1)c1cccc(Br)c1`, the activation is inactive: 1.68%. For the molecule `C=CCN1CCN(CCOC(=O)C(O)(c2ccccc2)c2ccccc2)CC1`, the activation was inactive: -1.27%. Take `O=C(NCC1(N2CCCCC2)CCCCC1)c1cc(F)c(F)cc1Cl`: the activation was inactive: 3.3%.

On to `Cc1ccccc1C(=O)NCC1(N2CCCCC2)CCCCC1`, for which the activation is inactive: -1.48%. Turning to `CN(C)C1CCCC1OC(=O)C(O)(c1ccccc1)c1ccccc1` (stereo unspecified), the activation was inactive: 3.78%. Consider `CN(C)c1ccc(C(=O)NCC2(N(C)C)CCCCC2)cc1`, for which the activation was inactive: 0.822%. For the molecule `O=C(NCC1(N2CCCCC2)CCCCC1)c1cccc(Cl)c1`, the activation is inactive: -0.198%. For `COc1cccc(C(=O)NCC2(N3CCCCC3)CCCCC2)c1`, the activation was inactive: 2.44%. Then `COc1ccc(Cl)cc1C(=O)NCC1(N(C)C)CCCCC1`, with inactive: -3.04%; and `COc1cc(C(=O)NCC2(N(C)C)CCCCC2)c([N+](=O)[O-])cc1OC`, with inactive: 0.526%; and `CN(C)C1(CNC(=O)c2ccc(Br)cc2)CCCCC1`, with inactive: -0.31%.

In the case of `CC(C)Oc1ccc(C(=O)NCC2(N(C)C)CCCCC2)cc1`, the activation was inactive: 2.14%. Regarding `O=C(OCCN1CCCC1)C(O)(c1ccccc1)c1ccccc1`, the activation is inactive: 1.08%. Take `CN(C)c1cccc(C(=O)NCC2(N(C)C)CCCCC2)c1`: the activation is inactive: 0.167%. In the case of `C=C(C)C#CC(O)(C(=O)OC1CCN(C)CC1)c1ccccc1` (stereo unspecified), the activation was inactive: -3.86%.

Turning to `COc1ccc(Br)c(C(=O)NCC2(N3CCCCC3)CCCCC2)c1`, the activation was inactive: 1.16%. In the case of `O=C(OC1CN2CCC1CC2)C(CO)(c1ccccc1)c1ccccc1` (stereo unspecified), the activation is inactive: 0.777%.
